How the values were obtained:
[1] = target: T1, Integrin alpha-V/beta-3 (Homo sapiens, UniProt P05106+P06756); assay: Inhibition of integrin alphavbeta3 (unknown origin)-mediated K562 cell adhesion to LAPb1 coated surface by fluorescence analysis; format: cell-based
[2] = target: T1, Integrin alpha-V/beta-3; assay: Inhibition of integrin alphavbeta3 (unknown origin) by Monsanto binding assay; format: protein-complex assay

The chains behind the UniProt entries cited, without tags or fusion partners. Residues count along the entry.
UniProt P05106, 27-788 limits assumed: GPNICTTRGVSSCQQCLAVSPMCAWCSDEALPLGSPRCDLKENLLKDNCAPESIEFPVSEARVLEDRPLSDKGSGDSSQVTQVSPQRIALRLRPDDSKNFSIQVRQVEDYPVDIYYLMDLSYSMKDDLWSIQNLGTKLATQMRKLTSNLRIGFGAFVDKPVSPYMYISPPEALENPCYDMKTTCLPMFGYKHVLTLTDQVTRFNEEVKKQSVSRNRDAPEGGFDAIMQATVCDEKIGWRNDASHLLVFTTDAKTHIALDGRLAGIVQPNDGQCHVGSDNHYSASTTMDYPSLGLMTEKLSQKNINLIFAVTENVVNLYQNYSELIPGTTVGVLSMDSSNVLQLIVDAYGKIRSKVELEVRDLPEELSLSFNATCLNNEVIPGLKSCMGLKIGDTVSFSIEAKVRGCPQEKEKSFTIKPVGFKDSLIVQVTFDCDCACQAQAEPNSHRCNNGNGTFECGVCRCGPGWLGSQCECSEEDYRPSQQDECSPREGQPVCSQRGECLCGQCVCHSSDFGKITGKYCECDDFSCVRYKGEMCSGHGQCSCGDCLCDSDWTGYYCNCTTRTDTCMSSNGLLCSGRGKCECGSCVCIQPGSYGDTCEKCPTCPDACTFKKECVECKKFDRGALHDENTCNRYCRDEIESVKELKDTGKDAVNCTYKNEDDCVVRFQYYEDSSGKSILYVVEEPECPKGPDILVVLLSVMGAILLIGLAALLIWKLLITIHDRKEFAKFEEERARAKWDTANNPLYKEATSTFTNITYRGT
UniProt P06756, 891-1048 limits assumed: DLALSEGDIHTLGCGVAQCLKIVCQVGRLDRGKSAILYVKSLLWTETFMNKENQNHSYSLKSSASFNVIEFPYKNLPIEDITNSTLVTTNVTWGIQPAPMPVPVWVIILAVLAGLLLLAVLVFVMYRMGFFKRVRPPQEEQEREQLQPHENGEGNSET
UniProt P06756, 31-889 limits assumed: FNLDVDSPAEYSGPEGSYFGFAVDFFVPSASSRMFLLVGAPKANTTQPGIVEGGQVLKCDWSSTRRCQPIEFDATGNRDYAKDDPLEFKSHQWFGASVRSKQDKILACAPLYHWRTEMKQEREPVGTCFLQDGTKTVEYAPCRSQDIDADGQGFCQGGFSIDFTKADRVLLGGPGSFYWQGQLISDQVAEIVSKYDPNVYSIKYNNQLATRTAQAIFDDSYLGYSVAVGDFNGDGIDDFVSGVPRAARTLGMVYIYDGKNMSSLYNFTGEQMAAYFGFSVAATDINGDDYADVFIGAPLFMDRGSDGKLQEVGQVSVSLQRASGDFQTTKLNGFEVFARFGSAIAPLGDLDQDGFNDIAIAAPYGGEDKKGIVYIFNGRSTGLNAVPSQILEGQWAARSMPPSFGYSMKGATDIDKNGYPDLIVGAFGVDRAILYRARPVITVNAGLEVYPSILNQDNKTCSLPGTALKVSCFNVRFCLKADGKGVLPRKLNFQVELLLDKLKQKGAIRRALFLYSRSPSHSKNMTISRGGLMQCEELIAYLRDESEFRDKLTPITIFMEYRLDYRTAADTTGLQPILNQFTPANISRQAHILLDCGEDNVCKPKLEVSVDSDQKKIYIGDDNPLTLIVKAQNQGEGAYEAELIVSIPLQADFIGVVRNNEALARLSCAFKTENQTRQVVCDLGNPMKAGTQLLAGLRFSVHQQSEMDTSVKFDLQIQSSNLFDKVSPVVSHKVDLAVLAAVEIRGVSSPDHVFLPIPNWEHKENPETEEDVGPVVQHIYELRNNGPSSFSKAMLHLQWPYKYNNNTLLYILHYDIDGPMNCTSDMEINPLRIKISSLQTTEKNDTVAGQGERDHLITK

SMILES: N=C(N)Nc1cccc(C(=O)NCC(=O)NC(CC(=O)O)c2cc(Cl)cc(Cl)c2)c1 (configuration not stated)
- IC50 [1]: 25.1 nM
- IC50 [2]: 1.1 nM

— ChEMBL document CHEMBL3351497, “Structure Activity Relationships of αv Integrin Antagonists for Pulmonary Fibrosis by Variation in Aryl Substituents” (ACS Med Chem Lett, 2014)
